We go through two compounds from publication PMC7763263 (2020).

Sequences of proteins named here, by UniProt entry; tags and fusion partners are left off.
UniProt P21397, whole entry: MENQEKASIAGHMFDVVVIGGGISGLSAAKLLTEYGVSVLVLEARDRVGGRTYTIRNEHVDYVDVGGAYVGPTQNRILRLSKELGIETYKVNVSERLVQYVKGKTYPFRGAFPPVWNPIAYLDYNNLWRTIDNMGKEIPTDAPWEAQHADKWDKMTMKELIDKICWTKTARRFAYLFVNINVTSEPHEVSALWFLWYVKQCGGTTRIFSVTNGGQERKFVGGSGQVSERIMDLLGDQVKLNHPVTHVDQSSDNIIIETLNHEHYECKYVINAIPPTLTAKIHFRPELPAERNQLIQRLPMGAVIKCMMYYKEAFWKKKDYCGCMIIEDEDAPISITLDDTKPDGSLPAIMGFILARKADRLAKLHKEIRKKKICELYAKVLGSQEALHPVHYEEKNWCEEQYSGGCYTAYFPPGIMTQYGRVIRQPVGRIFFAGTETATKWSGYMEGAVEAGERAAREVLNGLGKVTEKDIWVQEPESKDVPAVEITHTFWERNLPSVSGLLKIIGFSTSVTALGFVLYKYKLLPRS

Experiment [1] deals with T1, MAO-A (Homo sapiens, UniProt P21397). The experiment in a line: IC50 after 30 min preincubation, coupled assay with saturating substrate.
Experiment [2] concerns the target T1, MAO-A. The experiment in a line: Time-dependent inactivation, Kitz-Wilson analysis.
Experiment [3] has as its target T1, MAO-A. Kind of experiment: biochemical.
The target of experiment [4] is MAO-A. Particulars: read-out: MAO-A Ki (rat); rat mitochondria; ref Fowler et al. [34]; cited from earlier work.

In the case of `NNCCc1ccccc1` [Phenelzine], the IC50 (as a rule, the concentration needed to halve the response being measured) was 4.5 ± 0.72 µM on MAO-A [1] and 52.7 µM against MAO-A [3]. At MAO-A [2], this compound showed a Ki of 3.13 µM. Also, the kinact (commonly the rate constant of inactivation at saturating inhibitor) at MAO-A [2] (read-out: MAO-A kinact) was 0.002 s⁻¹. In addition, at MAO-A [2] (read-out: MAO-A kinact/KI), the kinact/KI is 638 M⁻¹ s⁻¹.
In the case of `C#CCN(C)Cc1ccccc1` [Pargyline], the IC50 against MAO-A [1] turned out to be 2.47 ± 0.28 µM. Further, the results for the Ki on MAO-A [4] and on MAO-A [2] were 15 µM and 22 µM, respectively.
